# Source: PubChem BioAssay AID651813 (National Center for Advancing Translational Sciences (NCATS), 2012)
# Amino acid sequences for entries named in this document (tags omitted). A change or cut given only in a name is not applied to a line headed by its entry.
# UniProt Q9HC16: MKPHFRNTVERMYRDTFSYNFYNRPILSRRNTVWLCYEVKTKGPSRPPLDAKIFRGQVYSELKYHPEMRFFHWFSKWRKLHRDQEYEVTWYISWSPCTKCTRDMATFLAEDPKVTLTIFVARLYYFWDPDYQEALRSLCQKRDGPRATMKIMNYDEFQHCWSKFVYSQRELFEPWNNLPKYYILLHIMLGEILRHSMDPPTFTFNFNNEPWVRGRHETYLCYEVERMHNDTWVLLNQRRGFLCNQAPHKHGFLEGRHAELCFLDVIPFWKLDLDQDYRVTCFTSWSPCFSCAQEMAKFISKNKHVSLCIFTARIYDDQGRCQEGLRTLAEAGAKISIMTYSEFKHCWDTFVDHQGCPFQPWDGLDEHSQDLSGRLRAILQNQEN
# Only a part is listed here, and it is no random draw. Results filed as inconclusive are left out. Activity calls are given as the source filed them. The call rests on the fitted dose curve; in most records, active means well fitted inhibition curve with a large enough effect; inconclusive means small, poorly fitted or top-dose-only effect; inactive means no such curve, though single readings can be large or run the other way.
# Molecular target: DNA dC->dU-editing enzyme APOBEC-3G (Homo sapiens) (UniProt Q9HC16)
# Assay: qHTS for inhibitors of Vif-A3G interactions: Cherry picks counterscreen;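 further: hits raise yellow fluorescence by blocking Vif-driven A3G-eYFP degradation; nearly all actives have a fitted effect of over 70% in size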
# Conditions: HeLa A3G-eYFP + Vif (tagged APOBEC3G with the HIV-1 protein that degrades it), eYFP fluorescence, 24 h
# Excerpt: The recent discovery and characterization of host restriction factors, which provide a potent defense to invading retroviruses, has provided new targets for antiviral drug development. APOBEC3G (A3G) and APOBEC3F (A3F) are potent cytidine deaminases that block HIV-1 replication; HIV-1 expresses the Vif protein, which counteracts A3G and A3F by binding to them and inducing their proteasomal degradation. The Vif-A3G and Vif-A3F interactions provide two potential targets for development of small molecules which can interfere with the ability of Vif to degrade A3G or A3F. […] To identify inhibitors that can interfere with Vif mediated degradation of A3G and A3F, we have developed Hela cell lines that stably express A3G or A3F tagged with eYFP at the C-terminal end (A3G-eYFP or A3F-eYFP, respectively) and Vif. In the absence of an inhibitor, Vif induces degradation of A3G-eYFP and A3F-eYFP, and the cells are not fluorescent. In the presence of an inhibitor, it is expected that Vif will be unable to degrade A3G-eYFP and/or A3F-eYFP, resulting in an increase in yellow fluorescence. […]
# A3G-Vif cells were harvested from T225 flask and resuspended in phenol free OPTI-MEM medium with 5% FBS. […] After that, the plates were measured on Acumen Explorer (TTP Lab Tech). The fluorescence was detected by 488 nm/Ex and […].
# Potency means the concentration at half of the fitted maximal effect.
row,Structure (SMILES),Potency
1,CC[n+]1c(/C=C/N(C)c2ccccc2)oc2ccccc21,active: 6.51 µM
